Data: patent US4808580A, “Naphtho[1,2-b][1,4]thiazepin-4(5H)-ones and use thereof in treatment of ischemia and blood pressure lowering” (Hoffmann-La Roche Inc., priority 1987, dated 1989)
Counter-ions that a name gives are not always drawn.

Tested on: Guinea Pig Ileum
Test: Guinea pig ileum assay - tonic contraction (K+-induced contraction of longitudinal muscle; calcium channel blocking activity)
Type: cell-based
Conditions: Cavia porcellus, inhibition of tonic contraction by 50%, K+ challenge 80 mM for 2 minutes, compound 2 minutes prior and during, Tyrode's Solution 37° C.
Description: GUINEA PIG ILEUM ASSAY--TONIC CONTRACTION
Male guinea-pigs weighing from 300-400 grams were stunned and bled. The abdomen was opened and 10-15 cm of terminal ileum was carefully removed and cleaned and placed in Tyrode's Solution of the following composition: NaCl (8 g/l), KCl (0.2 g/l), MgCl2 (0.2 g/l.), CaCl2 (0.2 g/l), NaH2 PO4 (0.05 g/l), NaHCO3 (1.0 g/l) and Glucose (1 g/l). The solution was maintained at 37° C. and gassed with 95% O2 and 5% CO2. Portions of the ileum were placed over a glass rod, a shallow incision was made the length of the mesenteric attachment just severing the outer-longitudinal muscle layer. The longitudinal muscle was separated from the underlying circular muscle by gentle dissection (Rang, H. P. Annals of N.Y. Academy of Science Vol. 144, page 756, (1964)). The tissue was fixed at one end to a tissue holder, the other end was connected by a thread to a force transducer and suspended in a muscle bath containing Tyrode's Solution maintained at 37° C. and gassed with 95% O2 and 5% CO2. An initial tension of 500 mg was applied and the tissue allowed to equilibrate for 60 minutes prior to the start of the study. During this period the tissue was washed every 16 minutes. Each preparation, at 16 minute intervals, was challenged with KCl sufficient to yield a bath K^+ concentration of 80 mMK for 2 minutes, then washed with fresh solution. […]

For `COc1ccc([C@@H]2Sc3ccccc3N(CCN(C)C)C(=O)[C@@H]2OC(C)=O)cc1` [E, diltiazem hydrochloride, reference compound], which IC50 is on record?
The IC50 was 250 nM.
